Experimental data taken from patent publication US8648045B2, “VDAC1 compositions and methods of use thereof for regulating apoptosis” (Ben Gurion University of the Negev Research and Development …, priority 2005, dated 2014).

Key:
[1] = test system: U937 cells; assay: HK-I over-expression protection against apoptotic cell death in double-transfected cells; assay type: cell-based, human
Procedure: U937 cells were transfected with pcDNA3.1-HisA or pcDNA3.1-HisA-HK-I (neomycin resistance; provided by Dr. J. E. Wilson, University of Michigan) by electroporation, and grown in complete RPMI 1640 with neomycin ([…]). After 12 days, the selected cells were transfected with pEGFP, pEGFP-mVDAC1 or pEGFP-E72Q-mVDAC1 and were grown in the presence of neomycin ([…]). The viability of double-transfected cells was analyzed during 48 to 76 hr.
To determine cell viability, cells were stained with 100 μg/ml acridine orange (AcOr) and 100 μg/ml ethidium bromide (EtBr) in PBS. Cells were centrifuged at 1500×g for 5 min at room temperature and resuspended in 25 μl of complete medium, to which 2 μl of AcOr/EtBr solution were added. The cells were then visualized by fluorescence microscopy (Olympus IX51) and images were recorded on an Olympus DP70 camera, using a SWB filter.
The effect of HK-I over-expression on apoptotic cell death of the GFP-tagged version of native and E72Q-mVDAC1 over-expressing cells was examined. Cells were first transformed to over-express HK-I and then transfected with native mVDAC1-GFP or E72Q-mVDAC1-GFP. […]

[2] = test system: U937 cells; assay: Apoptotic cell death of U937 cells transfected with native or mutated mVDAC1, with/without RuR (acridine orange/ethidium bromide staining); assay type: cell-based, human
Procedure: Logarithmically-growing U937 cells were resuspended in RPMI 1640 supplemented with 10% FCS, 100 U/ml penicillin and […] streptomycin at a concentration of 2.5×10^7 cells/ml. Cells were transfected to express rat or murine VDAC1 using the vectors pEGFP, pEGFP-VDAC1, pEGFP-E72Q-mVDAC1, pE-mVDAC1 or pE-E72Q-mVDAC1. Transfection of the U937 cells was performed by electroporation with a single pulse from a Bio-Rad micropulser II with a capacitance extender unit (200 V, […]). Cells were incubated on ice for 10 min before and after transfection, and then resuspended in 20 ml of RPMI 1640 supplemented with 10% FCS, 1 mM l-glutamine, 100 U/ml penicillin and […] streptomycin. Transfection efficiencies were 68-72%, as assessed by GFP expression. GFP-positive cells were viewed under a microscope using a blue filter.
Cells were plated at a density of 5.4×10^4 cells/cm^2 in 24-well plates, washed once with PBS and placed in serum-free medium. Cells were then incubated with or without RuR or Ru360. Cells were also treated with […] staurosporine (STS) to induce apoptosis and analyzed for viability 3, 5 and 7 hrs after STS addition. Treatments with curcumin (120 μM) or As2O3 (20 μM) were carried out for 48 hrs.
To determine cell viability, cells were stained with 100 μg/ml acridine orange (AcOr) and 100 μg/ml ethidium bromide (EtBr) in PBS. […] The cells were then visualized by fluorescence microscopy (Olympus IX51) and images were recorded on an Olympus DP70 camera, using a SWB filter.
To further investigate the relationship between the protective effect of RuR and its interaction with VDAC1, leukemic U937 cells were transfected with a plasmid encoding native, E65Q, E72Q, K73L, or D77N-mVDAC1 variant. Fifty six (56) hr after transfection, cells were exposed for 20 hr to RuR (1 μM) and cell viability was analyzed using acridine orange/ethidium bromide staining. In each independent experiment, approximately 250 cells were counted for each including early and late apoptotic cells. […]

B1: native mVDAC1: mouse VDAC1, native, over-expressed from plasmid (protein)
chain: MAVPPTYADLGKSARDVFTKGYGFGLIKLDLKTKSENGLEFTSSGSANTETTKVNGSLETKYRWTEYGLTFTEKWNTDNTLGTEITVEDQLARGLKLTFDSSFSPNTGKKNAKIKTGYKREHINLGCDVDFDIAGPSIRGALVLGYEGWLAGYQMNFETSKSRVTQSNFAVGYKTDEFQLHTNVNDGTEFGGSIYQKVNKKLETAVNLAWTAGNSNTRFGIAAKYQVDPDACFSAKVNNSSLIGLGYTQTLKPGIKLTLSALLDGKNVNAGGHKLGLGLEFQA
level of apoptosis in cells over-expressing HK-I ([1]; U937 cells first transformed to over-express HK-I): < 10% | protective effect of HK-I over-expression against cell death induced by mVDAC1 over-expression ([1]; U937 or T-Rex 293 cells stably over-expressing HK-I, mVDAC1-GFP constructs): dramatically reduced

B2: mVDAC-GFP: GFP-tagged native mouse VDAC1 expressed in transfected cells (protein)
chain: MAVPPTYADLGKSARDVFTKGYGFGLIKLDLKTKSENGLEFTSSGSANTETTKVNGSLETKYRWTEYGLTFTEKWNTDNTLGTEITVEDQLARGLKLTFDSSFSPNTGKKNAKIKTGYKREHINLGCDVDFDIAGPSIRGALVLGYEGWLAGYQMNFETSKSRVTQSNFAVGYKTDEFQLHTNVNDGTEFGGSIYQKVNKKLETAVNLAWTAGNSNTRFGIAAKYQVDPDACFSAKVNNSSLIGLGYTQTLKPGIKLTLSALLDGKNVNAGGHKLGLGLEFQA
modifications: left off: large carriers
notes: GFP-tagged native mouse VDAC1 expressed in transfected cells
% of protection ([2]; protection by RuR (1 μM) against apoptosis of transfected U937 cells): 65% | Apoptotic cells, % −RuR ([2]; transfected U937 cells, without RuR, mean±SEM (n=3)): 69.6 ± 2.7% | Apoptotic cells, % +RuR ([2]; transfected U937 cells, 56 hr after transfection exposed 20 hr to RuR (1 μM), mean±SEM (n=3)): 24.7 ± 2.2%
